Laboratory results reported in article PMC12631912, “A Multifunctional Molecular Probe for Multimodal Imaging‐Guided Potent Photothermal/Photodynamic Therapy of Endometriosis” (Advanced Science, 2025).

How the values were obtained:
EESCs = test: CCK-8 cytotoxicity without laser irradiation; assay type: cell-based, human; conditions: CCK-8, 24 h incubation, ICG concentration up to 300 µg mL^−1
Procedure: (§1) The CCK‐8 assay was used to quantitatively assess the viability of Ishikawa cells and EESCs after treatment with cRGD‐ILD or ILD. The cells (1 × 10^4 per well) were seeded in a 96‐well plate, allowed to adhere overnight, and then added to various concentrations of ICG (ranging from 10 to 300 µg mL^−1) in the form of ILD and cRGD‐ILD. After 24 h, the medium was replaced with fresh medium containing 10% CCK‐8 reagent and incubated for an additional 2 h. The absorbance at 450 nm was measured using a Synergy 2 multimode microplate reader (BioTek, USA), with the wells without cells serving as blanks. All experiments were performed in triplicate.

Ishikawa cells = test: CCK-8 cytotoxicity without laser irradiation; assay type: cell-based; conditions: CCK-8, 24 h incubation, ICG concentration up to 300 µg mL^−1
Procedure: as §1

## ICG‐lys‐DTPA@Gd [ILD]
EESCs
  cell viability without laser irradiation: above 90%
Ishikawa cells
  cell viability without laser irradiation: above 90%
